Here are results for two compounds from patent US20150284362A1, “CARBAZOLE-CONTAINING AMIDES, CARBAMATES, AND UREAS AS CRYPTOCHROME MODULATORS” (ReSet Therapeutics, Inc., priority 2014, published 2015).

In one series the test system is db/db mice. The note with it: 30 and 100 mg/kg PO QD 7 days, no increased effect at 300 mg/kg.
For series [1], the system named is core clock gene mRNAs in liver. Briefly: Four day study, liver core clock gene mRNA, ICR mice. Format: in vivo, mouse. As to conditions: 50 mg/kg PO BID 4 days, ZT6. On the procedure:
Male ICR mice (weighing 30-35 g), obtained from Charles River Laboratories (Hollister, Calif.), were used for the experiment following at least 3 days of acclimation. Mice were dosed with vehicle (WFI or 10% Kolliphor) or compound (50 mg/kg, dose volume 5 mL/kg, PO) for 4 days BID (twice a day), beginning in the afternoon of the first day. The last dose of compound or vehicle was administered on the morning of harvest. On the day of harvest (6 hours following the final dose), mice were euthanized by CO2 asphyxiation and 50 mg of liver tissue was excised and placed in a tube containing 500 μl of RNA later.
E.Z.N.A.® HP Total RNA Isolation Kits (R6812-01 and the protocol described in the Manual, Revised 2010) were utilized to prepare and isolate RNA from the liver samples. To prepare the RNA samples, 10-30 mg of sample was removed from RNA-Later and placed in a 1.5 ml microfuge tube. […]
RediPlate 96 RiboGreen RNA Quantification Kit (Invitrogen) RediPlate standard curve was prepared by transferring 20 μl reconstituted RNA standard to a RediPlate well reconstituted in 180 μl RediPlate TE buffer. […] After transferring 5 μl to RediPlate well reconstituted in 195 μl TE buffer and incubating 10 min. at RT, Fluorescence Intensity of wells with standards and samples were read in a Tecan M200 with Excitation set at 480 nm and Emission set at 520 nm with the gain set to ˜70%. […]

The nature of series [2]: Pharmacokinetic analysis in ICR mice (plasma and liver). Format: in vivo. As to conditions: male, plasma, po, mouse, 50 mg/kg P.O., Table 4, read-out: Total Plasma AUC, AUC (0-last). On the procedure:
Male ICR mice (weighing 30-40 g, Charles River Laboratories) were used for the experiment with n=3 mice for each experimental group (27 mice total for the study). […] Blood and liver tissue were collected at the following time points after administration: 15, 30, 60, 90 minutes, 3, 6, 12 and 24 hours. A control group of animals (TO) was also sampled. Animals were euthanized with CO2 and the blood collected from the heart using cardiac puncture, transferred to an EDTA tube, and then centrifuged at 5400 rpm for 5 minutes at 4° C. The resultant plasma was frozen using dry ice and then stored at −80° C. until ready for assay. Liver tissue was removed from each animal, 0.5 g was collected in an eppendorff, frozen and submitted for pharmacokinetic measurement. […] Raw data was analyzed using WinNonLin for PK parameters (Cmax, Tmax, elimination t^1/2, MRT (mean residence time), AUC (area under the curve)−(0−last and % extrapolated).

Another series concerns C57/Bl6J DIO mice. The series is described as follows: Increasing dosages of Compound 72 over 7 days in diet-induced obesity (DIO) mouse model. Format: in vivo. The note with it: 30 mg/kg PO QD 7 days. The text has this:
Male C57/Bl6J DIO mice were obtained from The Jackson Laboratory (Sacramento, Calif.). […] Animals were accustomed to these conditions for at least 2 weeks before experimentation and used at approximately 24 weeks of age.
Significance was accepted when p<0.05.
Male C57/Bl6J DIO mice were obtained from The Jackson Laboratory (Sacramento, Calif.). […] Animals were accustomed to these conditions for at least 2 weeks before experimentation and used at approximately 26 weeks of age.

On to `O=C1C(F)CCN1CC(O)Cn1c2ccc(F)cc2c2cc(F)ccc21` (centres unmarked) [Compound 9, 1-(3-(3,6-difluoro-9H-carbazol-9-yl)-2-hydroxypropyl)-3-fluoropyrrolidin-2-one], for which, in the series on db/db mice, the “glucose levels during the OGTT” value is “dose dependent reduction in glucose levels”. In addition, in series [1], the “Cry2 transcripts in liver” value is recorded as “decrease” and the “liver Per2 expression” value is recorded as “suppression”. Further, in series [2], the AUC(0-t) was found to be 1910 ng·h/mL.

In the case of `CN(CCOc1ccc(CC2SC(=O)NC2=O)cc1)c1ccccn1` (centres unmarked) [Rosiglitazone], the “glucose AUC calculated from the OGTT” value with C57/Bl6J DIO mice is 9858+/−1281 units.
